Results published in PubChem BioAssay (NCI).
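Assay format: 96-well plates, 48-hour exposure. Abbreviation: GI50, concentration required for 50% inhibition of growth.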

Legend:
Experiment in all cases: DTP human tumour cell line panel, 48 h; in the data active = GI50 below about 0.43 µM; inactive = the rest
[1] = test system: NCI-H226 lung
[2] = test system: OVCAR-4 ovarian
[3] = test system: HOP-62 NSCLC
[4] = test system: NCI/ADR-RES ovarian
[5] = test system: HCC-2998 colon
[6] = test system: NCI-H322M lung
[7] = test system: CCRF-CEM leukemia
[8] = test system: NCI-H460 lung
[9] = test system: SK-MEL-28 melanoma
[10] = test system: LOX IMVI melanoma
[11] = test system: NCI-H522 lung
[12] = test system: MCF7 breast
[13] = test system: SW-620 colon
[14] = test system: BT-549 breast
[15] = test system: HCT-116 colon
[16] = test system: KM12 colon
[17] = test system: HT29 colon
[18] = test system: UO-31 renal
[19] = test system: A549 NSCLC
[20] = test system: IGROV1 ovarian
[21] = test system: A498 renal
[22] = test system: UACC-257 melanoma
[23] = test system: SK-OV-3 ovarian
[24] = test system: MOLT-4 leukemia
[25] = test system: HOP-92 NSCLC
[26] = test system: SK-MEL-2 melanoma
[27] = test system: MDA-MB-231 breast
[28] = test system: K-562 leukemia
[29] = test system: NCI-H23 lung
[30] = test system: MALME-3M melanoma
[31] = test system: SF-268 CNS
[32] = test system: PC-3 prostate
[33] = test system: SF-295 CNS
[34] = test system: COLO 205 colon
[35] = test system: EKVX NSCLC
[36] = test system: DU-145 prostate
[37] = test system: HCT-15 colon
[38] = test system: HS 578T breast
[39] = test system: CAKI-1 renal
[40] = test system: UACC-62 melanoma
[41] = test system: U251 CNS
[42] = test system: SNB-19 CNS
[43] = test system: OVCAR-8 ovarian
[44] = test system: SK-MEL-5 melanoma
[45] = test system: OVCAR-3 ovarian
[46] = test system: SN12C renal
[47] = test system: M14 melanoma
[48] = test system: ACHN renal
[49] = test system: T-47D breast
[50] = test system: TK-10 renal
[51] = test system: OVCAR-5 ovarian
[52] = test system: 786-0 renal

Measured: GI50

CN(C)CCn1c(Cn2nc3ccccc3n2)nc2cc(Cl)ccc21
inactive: [1] > 100 µM | [2] 36.6 µM | [3] > 100 µM | [4] 60.5 µM | [5] 27.1 µM | [6] > 100 µM | [7] 31.6 µM | [8] > 100 µM | [9] > 100 µM | [10] 89.7 µM | [11] 27.9 µM | [12] 48.6 µM | [13] > 100 µM | [14] 63.5 µM | [15] 61 µM | [16] 47.9 µM | [17] 91.8 µM | [18] 9.08 µM | [19] 53.3 µM | [20] > 100 µM | [21] 28.2 µM | [22] 63.3 µM | [23] > 100 µM | [24] 19.9 µM | [25] 30.3 µM | [26] > 100 µM | [27] > 100 µM | [28] 35.9 µM | [29] 55.3 µM | [30] 29.8 µM | [31] > 100 µM | [32] > 100 µM | [33] 84.5 µM | [34] 43.8 µM | [35] 75.8 µM | [36] > 100 µM | [37] > 100 µM | [38] > 100 µM | [39] 85.1 µM | [40] > 100 µM | [41] > 100 µM | [42] > 100 µM | [43] 65.6 µM | [44] 39.4 µM | [45] > 100 µM | [46] 72.7 µM | [47] 37.1 µM | [48] 65.7 µM | [49] 24.8 µM | [50] > 100 µM | [51] > 100 µM | [52] 85.7 µM
